Source: PubChem BioAssay (NCI)
Several values for one entry are separate records, joined by “and”; a condition that tells them apart may be missing. Identical values can stand only once. This is a selection; strong and weak results do not stand in their true shares.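 Step 1: grow cells in 96-well plates. Step 2: add test compound at a single concentration. Step 3: incubate 48 h. Step 4: record percent growth.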 Activity calls are given as the source filed them. How the source made its calls: active means growth percent below 10; inactive means the rest.

Columns and labels:
Assay in all cases: NCI-60 one-dose screen, 48 h (100 = growth as untreated, 0 = no growth, -100 = all killed)
Details in all cases: 10 µM unless noted
[1] = tested on: NCI/ADR-RES ovarian
[2] = tested on: T-47D breast
[3] = tested on: BT-549 breast
[4] = tested on: MDA-MB-435 melanoma
[5] = tested on: SW-620 colon
[6] = tested on: MCF7 breast
[7] = tested on: HCT-116 colon
[8] = tested on: HCC-2998 colon
[9] = tested on: KM12 colon

Measured: growth

N/C(=N\N=C\c1ccc([N+](=O)[O-])o1)N[N+](=O)[O-]
inactive: [1] 101% | [2] 92.1% | [3] 104% | [4] 101% | [5] 100% | [6] 80.3% | [7] 95.3% | [8] 118% | [9] 94.7%

CC(C)N(CCCl)/N=N/c1nc2nc[nH]c(=O)c2[nH]1
inactive: [1] 102% | [2] 94.1% | [3] 108% | [4] 108% | [5] 104% | [6] 105% | [7] 110% | [8] 98.2% | [9] 107%

ClP1Nc2cncnc2N1 (centres undefined)
inactive: [1] 115% | [2] 105% | [3] 116% | [4] 109% | [5] 123% | [6] 102% | [7] 120% | [9] 98.4%

Cc1cc([N+](=O)[O-])cc([N+](=O)[O-])c1O
inactive: [1] 105% | [2] 98.7% | [3] 108% | [4] 112% | [5] 102% | [6] 96.3% | [7] 102% | [8] 104% | [9] 105%

Cc1ccccc1C(=O)N(CCCl)CCCl
inactive: [1] 105% | [2] 96.7% | [3] 108% | [4] 95.8% | [5] 108% | [6] 93.9% | [7] 105% | [8] 99.5% | [9] 113%

O=C(OCCNCCCl)c1ccccc1
inactive: [1] 108% | [2] 98.3% | [3] 109% | [4] 98.3% | [5] 97.6% | [6] 87.6% | [7] 106% | [8] 107% | [9] 110%

CC1(C)NC(C)(C)C(Br)C(=O)C1Br (centres undefined)
inactive: [1] 109% | [2] 105% | [3] 109% | [4] 115% | [5] 112% | [6] 100% | [7] 99.1% | [8] 103% | [9] 113%

Cc1ccc(S(=O)(=O)CN(CCCl)CCCl)cc1
inactive: [1] 110% | [2] 95% | [3] 109% | [4] 104% | [5] 114% | [6] 85.6% | [7] 109% | [8] 103% | [9] 108%

O=C(CCC(=O)Oc1c(Cl)cc([N+](=O)[O-])cc1[N+](=O)[O-])Oc1c(Cl)cc([N+](=O)[O-])cc1[N+](=O)[O-]
inactive: [1] 109% | [2] 94.3% | [3] 109% | [4] 107% | [5] 108% | [6] 105% | [7] 111% | [8] 107% | [9] 109%

O=P1(N(CCCl)CCCl)OCCCN1CCCl (centres undefined)
inactive: [1] 112% | [2] 110% | [3] 100% | [4] 116% | [5] 103% | [6] 122% | [7] 106% | [8] 110% | [9] 106%

O=C(Nc1ccc([N+](=O)[O-])cc1)N(CCBr)CCBr
inactive: [1] 101% | [2] 101% | [3] 97.7% | [4] 94.5% | [5] 106% | [6] 95.8% | [7] 103% | [8] 97.1% | [9] 103%

Fc1cccc(CNCCCl)c1
inactive: [1] 110% | [2] 106% | [3] 113% | [4] 112% | [5] 118% | [6] 106% | [7] 111% | [8] 116% | [9] 96.6%

CCCC1OP(N)(=O)OCC1CC (centres undefined)
inactive: [1] 115% and 103% | [2] 106% and 97.1% | [3] 106% and 95% | [4] 123% and 101% | [5] 106% and 88.3% | [6] 111% and 99% | [7] 104% and 85.7% | [8] 109% | [9] 109% and 96.4%

CN(C)P(=O)(N(C)C)n1c(Nc2ccccc2)nnc1-c1ccccc1
inactive: [1] 99.7% | [2] 86% | [3] 100% | [4] 108% | [5] 107% | [6] 99.2% | [7] 85.2% | [8] 96.7% | [9] 88.3%

Cc1cccc(Nc2c([N+](=O)[O-])cc([N+](=O)[O-])cc2[N+](=O)[O-])c1
inactive: [1] 92.9% | [2] 60.8% | [3] 104% | [4] 101% | [5] 101% | [6] 68% | [7] 79.7% | [8] 104% | [9] 93.2%
